Test results from patent US6620839B2, “1,3-disubstituted and 1,3,3-trisubstituted pyrrolidines as histamine-3 receptor ligands and their therapeutic applications” (Abbott Laboratories, priority 2000, dated 2003).
pKi: −log10 of the molar value.

Amino acid sequences for entries named in this document (tags omitted). A change or cut given only in a name is not applied to a line headed by its entry.
UniProt Q9QYN8: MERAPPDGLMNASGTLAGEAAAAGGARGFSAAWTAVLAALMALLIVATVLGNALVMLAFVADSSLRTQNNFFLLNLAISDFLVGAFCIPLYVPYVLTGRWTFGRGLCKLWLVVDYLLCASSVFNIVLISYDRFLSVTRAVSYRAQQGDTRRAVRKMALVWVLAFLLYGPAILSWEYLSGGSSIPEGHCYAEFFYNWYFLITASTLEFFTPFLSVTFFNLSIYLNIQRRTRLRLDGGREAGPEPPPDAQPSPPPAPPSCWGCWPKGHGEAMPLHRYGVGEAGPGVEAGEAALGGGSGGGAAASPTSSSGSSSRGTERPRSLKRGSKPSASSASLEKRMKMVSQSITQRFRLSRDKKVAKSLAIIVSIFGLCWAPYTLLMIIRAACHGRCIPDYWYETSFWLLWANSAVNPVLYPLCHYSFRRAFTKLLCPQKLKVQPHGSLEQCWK

Target: T1, histamine-3 receptor (Rattus norvegicus, UniProt Q9QYN8)
T1 construct: from tissue; host or cells: male Sprague-Dawley rat brain cortex membranes
Assay: Histamine-3 receptor binding, (3H)-N-α-methylhistamine displacement in rat cortical membranes
Conditions: male Sprague-Dawley rat brain cortical membranes; (3H)-N-α-methylhistamine ~0.6 nM; 30 minutes at 25° C.; Cheng-Prusoff
Description: Briefly, male Sprague-Dawley rat brain cortices were homogenized (1 g tissue/10 mL buffer) in 50 mM Tris-HCl/5 mM EDTA containing protease inhibitor cocktail (Calbiochem) using a polytron set at 20,500 rpm. Homogenates were centrifuged for 20 minutes at 40,000×g. The supernatant was decanted, and pellets were weighed. The pellet was resuspended by polytron homogenization in 40 mL 50 mM Tris-HCl/5 mM EDTA with protease inhibitors and centrifuged for 20 minutes at 40,000×g. […] Test compounds were dissolved in DMSO to provide 20 mM solution, serially diluted and then added to the incubation mixtures prior to initiating the incubation assay by addition of the membranes. Thioperamide (3 μM) was used to determine nonspecific binding. Binding incubations were conducted for 30 minutes at 25° C. and terminated by addition of 2 mL of ice cold 50 mM Tris-HCl (pH 7.7) and filtration through 0.3% polyethylenimine-soaked Unifilter plates (Packard). These filters were washed 4 additional times with 2 mL of ice-cold 50 mM Tris-HCl and dried for 1 hour. Radioactivity was determined using liquid scintillation counting techniques. Results were analyzed by Hill transformation and Ki values were determined using the Cheng-Prusoff equation.

With “N-((3R)-1-{3-[(4′-cyano[1,1′-biphenyl]-4-yl)oxy]propyl}pyrrolidinyl)-4-fluoro-N-(4-fluorobenzoyl)benzamide [Example 129]” the pKi was 6.72.
